# Measured affinities in a library of Ab-14 heavy chain variants

Antigen: PDVDLGDISGINAS, a 14-residue peptide of the SARS-CoV-2 spike HR2 region.

Ab-14 is the parent antibody, in scFv form: VH, then a 15-residue (Gly4Ser)3 linker, then VL. The light chain is unchanged in all variants.
VH: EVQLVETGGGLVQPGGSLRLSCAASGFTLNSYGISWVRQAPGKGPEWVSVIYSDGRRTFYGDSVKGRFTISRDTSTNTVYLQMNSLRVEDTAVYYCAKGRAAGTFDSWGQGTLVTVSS
VL: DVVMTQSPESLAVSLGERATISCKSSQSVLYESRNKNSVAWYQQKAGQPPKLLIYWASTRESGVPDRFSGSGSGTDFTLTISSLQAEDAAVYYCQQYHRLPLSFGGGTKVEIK

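The variants were designed computationally from a first round of random CDR variants and then made and measured. Group labels follow the data file (Ctrl: baseline library sampled from a position-specific scoring matrix, with some repeated check sequences; Rand: our label for a block that the file lists under HC and that is probably the random mutants of the ten best first-round binders; GP: Gaussian process model; GPLM: also part of the Gaussian process libraries; HC: hill climbing; Gen: genetic algorithm; Gibbs: Gibbs sampling; a sequence that several methods proposed may carry one label only). AlphaSeq pools MATa yeast showing the antibodies with MATalpha yeast showing the peptide. After mating in shaken culture at 30 °C for 16 h, diploids were selected and their barcode pairs sequenced. Scores were corrected for input abundance and mapped to Kd with protein pairs of known affinity run in the same pool. The assay was run in six technical replicates.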

Each variant is given by its three heavy chain CDRs, as the data file delimits them; those of the parent are GFTLNSYGIS, VIYSDGRRTFYGDSVK, GRAAGTFDS. This list holds designs with at most six substitutions. Numbers give log10(Kd / nM), so 0 is 1 nM and 3 is 1 µM. Smaller is tighter. Replicates are averaged; those with no signal do not enter the mean. "nd" marks a missing value. The strain was present, yet no cells mated with the target were sequenced in that replicate, which points to weak or no binding. Three control strains display no target. For all heavy chain designs, 1% of the pairings with them gave a signal, with a median of 2.08 and one signal in twenty below 0.84, so weak values seen in few replicates may be background. Also given: how often the same scFv was detected with the empty control strains. In the paper, a design with two or fewer of six values counts as a poor binder. The range of this assay differs from that of the first round, and the authors advise against merging the two. Some sequences occur more than once in the pool; their replicates are listed entry by entry, parted by semicolons. The parent sequence was in this pool as ten entries: three were never detected, three once, and four in most replicates, with averages from 0.34 to 2.37.

With GFTLNSYGIS / VIYSDGRRVFYGDSVK / GQEAGTFTS [Ctrl] the result was nd, nd, nd, nd, nd, nd (controls 0 of 18). With GFSINSYGIS / VIYSDGRRTFYSDSVK / GQAAGTFDS [GPLM_Gen] the result was 0.27, 0.46, 0.13, 0.20, 0.32, 1.28 (mean 0.44; controls 0 of 18). Variant GFSLNSYGIS / VIYSDGRRTFYKDSVK / GMTAGTFDS [GP_Gen] showed 0.35, 0.19, -0.04, 0.34, 0.26, 0.55 (mean 0.28; controls 0 of 18). Variant KFQLNSYGIS / VIYADGRRTFYGDSVK / GRQAGTFDS [GP_Gibbs] showed -0.35, -0.51, -0.99, -0.32, -0.75, -0.47 (mean -0.56; controls 1 of 18). With GFTLNSYGIS / VIYSDGRRTFYGDSVK / GEEAGTFDS [Ctrl+GPLM_Gibbs] the result was 0.75, nd, 0.18, 2.13, 0.86, nd; 1.49, 1.56, 0.96, 0.71, 0.94, 1.19 (mean 1.08; controls 0 of 36). Variant GFELNSYGIS / VIYSDGRRTFYQDSVK / GRTAGTFDV [GP_Gibbs] showed 1.08, 1.24, 0.16, -0.02, 0.51, 0.27 (mean 0.54; controls 0 of 18).

For GFTLNHYGIS / VIYSDGRRTFYTDSSK / GRFAGTFYS [Rand], the assay gave nd, nd, nd, nd, nd, nd (controls 0 of 18). Variant KFTLNEYGIS / VIYSDGRRTFYTDSVK / GRSAGTFDS [GP_HC] gave nd, nd, nd, nd, nd, nd (controls 0 of 18). With GNTLNEYGIS / VIYSDGRRTFYGDSVK / GDAAGTFDS [Ctrl] the result was 1.59, 2.37, 1.32, 1.22, 1.57, 2.61 (mean 1.78; controls 2 of 18). Variant GFTLNEYGIS / VIYSDGRRTFYGDSVK / GRLAGTFDL [GPLM_Gen] gave 0.68, 0.81, 0.46, 0.70, 0.17, 1.50 (mean 0.72; controls 0 of 18). With GFSLNSYGIS / VIYSDGRRTMYGDSVK / GRAAGKFDS [Ctrl] the result was nd, nd, nd, nd, nd, 3.21 (controls 0 of 18). With GFTLQDYGIS / VIYSDGRRTFYGDRVK / LRAAGTFDS [Ctrl] the result was nd, nd, nd, nd, nd, nd (controls 0 of 18).

Variant GFSLNSYGIS / VIYSDGRRTFYMDAVK / GRWAGTFDS [Ctrl] gave nd, nd, nd, nd, nd, nd (controls 0 of 18). Variant GFSLNSYGIS / VIYSDGRRTIYGDSVK / GYAAQTFDS [Ctrl] gave nd, nd, 1.18, nd, 0.10, 1.24 (mean 0.84; controls 0 of 18). Variant GFDINSYGIS / VIYSDGRRTFYGDSVK / GRAAGWFNS [Rand] showed nd, nd, nd, nd, nd, nd (controls 0 of 18). Variant GFTLNDYGIS / VIYSDGRRTAYGDSVK / GREAGTFSS [Ctrl] gave 0.45, 0.38, 0.39, 0.06, 0.68, 0.47 (mean 0.41; controls 0 of 18). For GFSLESYGIS / VIYSDGRRTEYHDSVK / GRAAGTFDT [Ctrl], the assay gave 0.13, nd, 0.27, nd, nd, nd (mean 0.20; controls 1 of 18). Variant KFSLNNYGIS / VIYSDGRRTFYGDSVK / GQTAGTFDS [GP_Gen] gave nd, nd, 2.09, 1.72, 2.76, 2.96 (mean 2.38; controls 0 of 18).

For GFTLNEYGIS / VIYSDGRRTFYGDSVK / IEATGTFDS [Ctrl], the assay gave nd, nd, nd, nd, nd, nd (controls 0 of 18). Variant GFTLNSYGIS / VIYSDGRRTFYNDSVK / GQAKGTFDG [Ctrl] showed nd, 0.92, 0.61, 1.12, 1.66, 2.19 (mean 1.30; controls 0 of 18). With GFTLNLYGIS / VIYSDGRRTFYGDSVK / GREAGTFDS [Ctrl] the result was nd, nd, nd, nd, 1.07, nd (controls 0 of 18). With GFTLNSYGIS / VIYSDGRRTFYDDSVK / GQTAGKFDS [GP_HC] the result was nd, nd, nd, nd, nd, nd (controls 0 of 18). Variant GFVLNEYGIS / VIYSDGRRTFYIDSVK / GRAAGTFDS [GP_HC] showed 1.81, 1.60, 1.16, 2.07, 1.36, 1.29 (mean 1.55; controls 0 of 18). For GFSLNSYGIS / VIYSDGRRTFYGDSVK / GRARGVFDS [Ctrl], the assay gave 0.68, 0.37, 0.14, 0.22, 0.48, 0.72 (mean 0.43; controls 0 of 18).

With GFDLNSYGIS / VIYSDGQRTFYGDSVK / GREAGTFDS [GP_Gen] the result was 0.09, -0.27, -0.31, -0.26, -0.01, -0.08 (mean -0.14; controls 0 of 18). With GFSLNEYGIS / VIYSDGRRTFYGDSVK / GRQAGTFDT [GPLM_Gibbs] the result was 1.96, 1.11, 1.70, 1.55, 1.10, nd (mean 1.48; controls 0 of 18). Variant KFTLNSYGIS / VIYSDGRRVFYGDSVK / GRAAGTFDS [Ctrl] gave nd, nd, nd, nd, nd, nd (controls 0 of 18). For GFTLNSYGIS / VIYSDGRRTFYEDSVR / TRAAHTMDS [Ctrl], the assay gave nd, nd, nd, nd, nd, nd (controls 0 of 18). Variant GFTLNEYGIS / VIYSDGRRTFYGDSFK / GRAAVTFDQ [Rand] gave nd, nd, nd, nd, nd, nd (controls 0 of 18). Variant GFTLNSFGIS / VIYSDGRRTAYGDSVK / GRAQGTFDS [Ctrl] showed nd, nd, nd, nd, nd, nd (controls 0 of 18).

Variant KNTLNSYGIS / VIYSDGRRTFYGDSVK / GRAAGTFDS [Ctrl] showed 2.09, nd, nd, nd, nd, nd (controls 0 of 18). Variant GFNLMSYGIS / VIYSDGRRTFYGDSVK / GRAGGTFNS [Ctrl] gave nd, nd, nd, nd, nd, nd (controls 0 of 18). For GFTLNDYGIS / VIYSDGRRTFYSDSVK / GRTAGTFDS [GPLM_Gen], the assay gave 0.75, -0.49, 1.22, nd, -0.12, 0.35 (mean 0.34; controls 0 of 18). Variant GFDLNSYGIS / VIYSDGRRTFYSDSVK / GKAAGTFDS [GPLM_Gen] showed 1.02, 1.14, 0.31, 1.12, 0.30, 0.87 (mean 0.79; controls 0 of 18). For KFDLNSYGIS / VIYSDGRRTFYGDSVK / GNAAGTFDS [GP_Gen], the assay gave nd, nd, nd, 2.39, 1.23, 1.66 (mean 1.76; controls 0 of 18). Variant GFTLNSYGIS / VIYSDGRRTMYIQSVK / GRAAGTFDS [Ctrl] showed nd, nd, nd, nd, nd, nd (controls 0 of 18).

Variant GFTLNSYGIS / VIYSDGRRTFYSDSVK / GVAAGTFDS [GPLM_Gen] gave nd, 0.80, -0.61, 0.83, 1.21, 0.69 (mean 0.58; controls 0 of 18). For GFTLNSYGQS / VIYSDGRRTFYSDSVK / GRAGGTFDS [Rand], the assay gave nd, nd, nd, nd, nd, nd (controls 0 of 18). With GFELNSYGIS / VIYSDGRRTFYADQVK / GRTAGTFDS [GP_Gen] the result was 0.34, 0.24, -0.01, -0.09, 0.45, 0.38 (mean 0.22; controls 1 of 18). Variant GFNLNSYGIS / VIYSDGRRTFYGDAVK / GKIAGTFDS [GP_Gibbs] gave 0.83, 0.91, 0.99, 1.00, 1.46, 1.46 (mean 1.11; controls 0 of 18). For GFKLNSYGIS / VIYSDGRRTFYSDSVK / GKAAGTFDS [GP_Gibbs], the assay gave 1.55, 1.58, 1.10, 1.58, 0.99, 1.34 (mean 1.36; controls 0 of 18). Variant GFTLESYGIS / VIYSDGRRTFYDDSVK / GRAAFTFDS [Ctrl] gave nd, nd, nd, nd, nd, nd (controls 0 of 18).

With GFTLNEYGIS / VIYSDGRRTFYSDSVK / GRAAGTFDT [GPLM_HC] the result was 0.09, -0.37, -0.03, -0.45, -0.18, -0.05 (mean -0.17; controls 0 of 18). With GFFLNEYGIS / VIYSDGRRTFYGDSVK / GRQAGTFDS [GP_Gen] the result was 1.81, 1.62, 1.35, 2.52, 0.72, 2.15 (mean 1.69; controls 0 of 18). With SFDLNSYGIS / VIYSDGRRTFYADSVK / GKAAGTFDS [GP_Gen] the result was 0.20, 1.31, 0.14, 0.56, 1.10, 0.33 (mean 0.61; controls 0 of 18). For GFTLESYGIS / VIYSDGRRTFYADRVK / GRAAGTFDV [GP_Gibbs], the assay gave 1.73, 1.83, 1.48, 3.29, 2.92, 2.54 (mean 2.30; controls 3 of 18). Variant GFSLNSYGIS / VIYSDGRRTFYADNVK / GITAGTFDS [GP_Gibbs] gave 0.32, 1.06, 0.46, 1.01, 0.58, 0.78 (mean 0.70; controls 0 of 18).

Reference: Li et al. 2023, doi:10.1038/s41467-023-39022-2. File: FLAb, binding data.